Data taken from US10444224B2, “Method for RNA detection and quantification” (Cornell University, priority 2011, dated 2019).
“Also recorded” adds a separate entry of the source.

Test: Spinach-based RNA sensor fluorescence in response to guanine
Assay type: biochemical
Conditions: 0.1 μM RNA, 10 μM DFHBI, same concentration as guanine

B1: guanine sensor: Spinach-based turn-on RNA sensor for guanine (nucleic acid)
chain: GACGCGACUGAAUGAAAUGGUGAAGGACGGGUCCAGAUAAUCGCGUGGAUAUGGCACGCAAGUUUCUACCGGGCACCGUAAAUGUCCGACUCUUGUUGAGUAGAGUGUGAGCUCCGUAACUAGUCGCGUC
modifications: chemistry not given here
In the case of B1, the “molecular discrimination: guanosine or adenine” value is reported as “no fluorescence; also recorded: Only baseline fluorescence”.
